Cneo AK release = Cryptococcus neoformans cell lysis inducers, primary screen, AK release luminescence, single concentration | C. neoformans lysis, adenylate kinase release luminescence, 4 h; normalised: neutral wells 0, clomiphene wells 100 | AID 651654, 2012 | actives 0.2% (n = 360,000) | lysis activity, % at 15 µM;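 active means mean lysis activity across replicates of at least 80%, whatever share of replicates individually reach that level; inactive means mean lysis activity below 80%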
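Schedule: static 4 h at 37 °C with compound, 1 h detection; system: C. neoformans cells; benchmarks: Clomiphene as positive control; buffer or medium: fresh YPD medium; measure: luminescence rise reflecting yeast cell lysis; measured by: luminescent adenylate kinase detection reagent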
DENV2 CPE = inhibitors of DENV2 cytopathic effect, primary screen, cell-based, plate reader, single concentration | DENV2-infected cells, cytopathic effect rescue | actives 1.7% (n = 350,000) | CPE inhibition, % at 9.99 µM; in the data active means CPE inhibition above about 20%, passing the limit was not always enough; inconclusive means no clear call, values can overlap the other calls; tested in BHK-21 cells
E-selectin induc = E-selectin induction in HUVECs, primary screen, imaging, HUVEC, immunofluorescence imaging, single point; activation, % at 7.58 µM; actives 0.37% (n = 260,000); normalized: neutral wells 0, TNF-alpha wells 100; P16581;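 active means mean E-selectin-positive cell signal at least 10% of the positive control, reached in at least 60% of replicates, without over 20% cell loss; inconclusive means no rule given, readout overlaps actives, possibly toxicity-flagged; inactive means the rest, including those meeting only one limit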
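Read-out: % PE-positive cells | Test system: HUVEC | Doses: One compound dose added by pin transfer | Buffer or medium: EGM-2 over gelatin coat | Signal: Immunofluorescence imaging | Benchmarks: TNF-alpha, DMSO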
UUG fidelity = modulators of yeast start codon fidelity, primary screen, whole organism, S. cerevisiae, single point, plate reader; S. cerevisiae UUG-firefly luciferase reporter, luminescence/redox ratio; activity score, % at 18.7 µM; 0.13% of 350,000 active; AID 602363, 2012;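 active = replicate mean at a twofold rise or more, about +100% in these data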;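 also: firefly luciferase made from a UUG start codon reports start codon fidelity; reporter light over untreated wells divided by growth signal over untreated wells; some hits fall short of that in this replicate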
Of the large screens only hits and unclear results are named; the others gave an inactive call. Hits are enriched below; roughly 1.8% of the tested compounds scored in any of these assays.

CCS(=O)(=O)NCC[C@@H]1CC[C@@H](NC(=O)C2CC2)[C@@H](CO)O1	DENV2 CPE 46.2 (no result: Cneo AK release, UUG fidelity)
Cc1noc(C)c1NC(=O)N(C)C[C@@H]1Oc2ncc(C#CCN(C)C)cc2C(=O)N([C@@H](C)CO)C[C@H]1C	none
Cc1cc(S(=O)(=O)NC(=O)[C@H]2O[C@@H](n3ccc(=O)[nH]c3=O)[C@H](O)[C@@H]2O)ccc1Br	DENV2 CPE 20.1 (no result: Cneo AK release, UUG fidelity)
COCCNC(=O)C[C@H]1CC[C@@H](NC(=O)NC2CCCC2)[C@@H](CO)O1	none
COc1ccc(C(CNS(=O)(=O)c2ccc(NC(C)=O)c(OC)c2)N2CCCC2)cc1 (centres undefined)	DENV2 CPE 35.8
C[C@H]1CN([C@@H](C)CO)C(=O)c2cc(NC(=O)CCCN(C)C)ccc2O[C@@H]1CN(C)S(=O)(=O)c1ccc(Cl)cc1	DENV2 CPE active
C[C@@H]1CN([C@H](C)CO)C(=O)c2cc(NC(=O)CCCN(C)C)ccc2O[C@H]1CN(C)S(=O)(=O)c1cn(C)cn1	none
C[C@H]1CN([C@@H](C)CO)C(=O)c2cc(NC(=O)CCCN(C)C)ccc2O[C@@H]1CN(C)S(=O)(=O)c1ccc(F)cc1	none
C[C@H]1CN([C@@H](C)CO)C(=O)c2cc(NC(=O)CCCN(C)C)ccc2O[C@@H]1CN(C)S(=O)(=O)c1cn(C)cn1	DENV2 CPE 38.4
C[C@H]1CN([C@@H](C)CO)C(=O)c2cc(NC(=O)CCC(F)(F)F)ccc2O[C@H]1CN(C)S(=O)(=O)c1ccc(Cl)cc1	DENV2 CPE 73.3
COc1ccccc1C#Cc1ccc([C@H]2[C@H](CO)N3CCCCN(S(C)(=O)=O)C[C@@H]23)cc1	none
C[C@@H]1CN([C@H](C)CO)S(=O)(=O)c2ccc(C#Cc3ccccc3F)cc2O[C@@H]1CN(C)C	none
Cc1ccc(CNC(=O)OC2CC3CC2[C@H]2CCCCN2C3=O)cc1 (some centres undefined)	none (no result: Cneo AK release, UUG fidelity)
CCCNC(=O)OC1CC2CC1[C@H]1CCCCN1C2=O (some centres undefined)	DENV2 CPE 29.3 (no result: Cneo AK release, UUG fidelity)
COC(=O)/C=C1\N/C(=N\c2nc(C)cc(C)n2)N(c2ccc(C)cc2)C1=O	E-selectin induc 465.9 (no result: Cneo AK release, UUG fidelity)
C[C@@H]1CCCCO[C@H](CN(C)CC2CCCCC2)[C@H](C)CN([C@@H](C)CO)C(=O)c2cc(NC(=O)c3ccncc3)ccc2O1	DENV2 CPE inconclusive (no result: UUG fidelity)
Nc1nc2c(ncn2[C@@H]2O[C@H](CNCc3ccc(F)c(N4CCOCC4)c3)[C@@H](O)[C@H]2O)c(=O)[nH]1	DENV2 CPE 25.9 (no result: E-selectin induc)
Cn1c(=N)n(CC(=O)c2ccc(Br)cc2)c2ccccc21	DENV2 CPE 65.7 (no result: Cneo AK release, E-selectin induc, UUG fidelity)
Cn1c(=N)n(CC(=O)c2ccc(F)cc2)c2ccccc21	none
Nc1c(-c2ccccc2)nc2ncccn12	DENV2 CPE 27.7 (no result: Cneo AK release, UUG fidelity)
COc1ccc(NC(=O)Nc2ccc3c(c2)CC(=O)N([C@@H](C)CO)C[C@@H](C)[C@@H](CN(C)S(C)(=O)=O)O3)cc1	none (no result: E-selectin induc)
COc1ccc(NC(=S)N2CCC(C(=O)c3ccc(F)cc3)CC2)cc1	DENV2 CPE 37.0 (no result: E-selectin induc)
COc1ccc(NC(=S)N2CCC(C(=O)c3ccc(Cl)cc3)CC2)cc1	none (no result: E-selectin induc)
C=CCNC(=S)N1CCC(C(=O)c2ccc(OC)cc2)CC1	none (no result: E-selectin induc)
Cc1ccc(C)c(NC(=S)N2CCC(C(=O)c3ccc(F)cc3)CC2)c1	DENV2 CPE 20.9
C=CCNC(=S)N1CCC(C(=O)c2ccc(F)cc2)CC1	DENV2 CPE 53.3
CNC(=S)N1CCC(C(=O)c2ccc(Cl)cc2)CC1	DENV2 CPE 22.1
CC(=O)N(C)C[C@@H]1Oc2ncc(C#Cc3ccccc3F)cc2C(=O)N([C@@H](C)CO)C[C@@H]1C	none
O=[N+]([O-])c1ccccc1N=Nc1ccc(O)cc1O	none
O=S(=O)(O)c1cc(O)c(N=Nc2ccc(O)cc2O)c2ccccc12	E-selectin induc 65.5
O=c1[nH]c2cc(Cl)c(Cl)cc2o1	none
O=c1[nH]c2cc(Cl)c(Br)cc2o1	DENV2 CPE 157.3 (no result: E-selectin induc)
CC(=O)Nc1scc(C)c1-c1nc2ccccc2s1	DENV2 CPE 50.3 (no result: Cneo AK release, UUG fidelity)
C[C@@H]1CN([C@@H](C)CO)C(=O)Cc2cc(NC(=O)Nc3ccc(F)cc3)ccc2O[C@H]1CN(C)CC1CCCCC1	none
C/C(CC(=O)Nc1ccc(Cl)c(Cl)c1)=N\NC(=O)Cc1ccccc1	DENV2 CPE 50.8 (no result: Cneo AK release, E-selectin induc, UUG fidelity)
C/C(CC(=O)Nc1ccc2c(c1)OCCO2)=N\NC(=O)Cc1ccccc1	none (no result: E-selectin induc)
C[C@@H]1CN([C@@H](C)CO)C(=O)c2c(c3ccccc3n2C)-c2ccccc2CO[C@@H]1CN(C)CC1CCCCC1	none (no result: Cneo AK release, UUG fidelity)
COc1ccccc1OCC(=O)Nc1ccc(S(=O)(=O)N2CCN(C)CC2)cc1	E-selectin induc 333.2
COc1ccc(NC(=O)CN2CCN(S(=O)(=O)c3ccc(C(C)C)cc3)CC2)cc1OC	Cneo AK release 130.5 (no result: DENV2 CPE, E-selectin induc)
COc1ccccc1OCC(=O)Nc1ccc(S(=O)(=O)N2CCCC2)cc1	none
COc1ccc(C)cc1N(CC(=O)Nc1ccc(S(=O)(=O)N2CCOCC2)cc1)S(C)(=O)=O	DENV2 CPE 24.4
COc1ccc(N(CC(=O)Nc2ccc(S(=O)(=O)N3CCOCC3)cc2)S(C)(=O)=O)cc1OC	none
COc1ccc(S(=O)(=O)N2CCN(CC(=O)NC3CC3)CC2)cc1	DENV2 CPE 23.3
COc1ccc(C)cc1NC(=O)CN1CCN(S(=O)(=O)c2ccc(C(C)C)cc2)CC1	none (no result: DENV2 CPE, E-selectin induc)
O=C(C[C@@H]1C=C[C@H](NC(=O)C2CC2)[C@@H](CO)O1)Nc1nccs1	none
CN(C)CC(=O)Nc1ccc2c(c1)[C@H]1C[C@H](CC(=O)N3CCCCC3)O[C@H](CO)[C@H]1O2	none (no result: UUG fidelity)
COc1ccc(CNC(=O)CCC(=O)c2ccccc2)cc1	none
COc1ccc(C(=O)CCC(=O)NCc2cc(OC)cc(OC)c2)cc1	DENV2 CPE 34.8 (no result: E-selectin induc)
O=C([C@H]1[C@H](CO)[C@H]2Cn3c(ccc(C4=CCCC4)c3=O)[C@@H]1N2C(=O)c1ccncc1)N1CCOCC1	none (no result: UUG fidelity)
Cc1noc(C)c1S(=O)(=O)N(C)C[C@H]1Oc2ccc(NC(=O)Nc3ccc(F)cc3)cc2CC(=O)N([C@H](C)CO)C[C@@H]1C	E-selectin induc 63.8
Cc1ccc(S(=O)(=O)N(C)C[C@H]2Oc3ccc(NC(=O)Nc4ccc(F)cc4)cc3CC(=O)N([C@H](C)CO)C[C@@H]2C)cc1	DENV2 CPE 80.3
C[C@@H]1CN([C@H](C)CO)C(=O)Cc2cc(NC(=O)Nc3ccc(F)cc3)ccc2O[C@H]1CN(C)S(=O)(=O)c1ccc(Cl)cc1	DENV2 CPE 21.4, E-selectin induc inconclusive
Cc1noc(C)c1S(=O)(=O)N(C)C[C@H]1Oc2ccc(NC(=O)Nc3ccc(F)cc3)cc2CC(=O)N([C@H](C)CO)C[C@H]1C	none
Cc1ccc(S(=O)(=O)N(C)C[C@@H]2Oc3ccc(NC(=O)Nc4ccc(F)cc4)cc3CC(=O)N([C@H](C)CO)C[C@@H]2C)cc1	none
C[C@@H]1CN([C@H](C)CO)C(=O)c2cc(-c3ccc(F)cc3)cnc2O[C@H]1CN(C)C(=O)c1ccccc1F	none

High-throughput results deposited in PubChem by Broad Institute.
